# According to PubChem BioAssay AID2675 (National Center for Advancing Translational Sciences (NCATS), 2010):
# Amino acid sequences for entries named in this document (tags omitted).
# UniProt Q9NR56, whole entry: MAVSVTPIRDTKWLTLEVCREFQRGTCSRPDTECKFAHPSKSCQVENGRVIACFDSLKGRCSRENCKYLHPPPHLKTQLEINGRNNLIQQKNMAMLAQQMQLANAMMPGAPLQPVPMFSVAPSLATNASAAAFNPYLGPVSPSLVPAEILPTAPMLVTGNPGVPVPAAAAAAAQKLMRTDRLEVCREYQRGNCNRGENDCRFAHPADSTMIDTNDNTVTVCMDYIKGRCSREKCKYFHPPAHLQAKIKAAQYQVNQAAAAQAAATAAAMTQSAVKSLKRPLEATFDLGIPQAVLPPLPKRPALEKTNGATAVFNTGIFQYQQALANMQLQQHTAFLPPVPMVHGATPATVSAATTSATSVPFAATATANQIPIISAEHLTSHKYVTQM
# The entries are a selection whose mix differs from that of the whole data set. Records with an inconclusive call do not appear. The source made the active and inactive calls. Calls come from the whole dose curve; as a rule, active = well fitted inhibition curve with a large enough effect in the signal ratio, with a control signal flat (not every such curve was filed as active); inconclusive = small, poorly fitted or top-dose-only effect, or effect the other way, or a change in a side signal; inactive = no such curve, though single readings can be large or run the other way; the % refers to the signal ratio.
# Molecular target: Muscleblind-like protein 1 (Homo sapiens) (UniProt Q9NR56)
# Test: qHTS Assay for Inhibitors of MBNL1-poly(CUG) RNA binding
# Details: TR-FRET MBNL1-His/biotin-(CUG)12 binding, 665/545 ratio; at 57.5 µM (top of the series)
# % is set by controls: 0 for no effect and ±100 for the full control effect.
row,SMILES,"activity change, negative = inhibition"
1,COc1ccc(C(=O)NCC2(N3CCOCC3)CCCCC2)cc1OC,inactive: -3%
2,O=C(OC1CN2CCC1CC2)C1c2ccccc2C=Cc2ccccc21 (configuration not stated),inactive: 11.2%
3,CCOC(=O)N1CCC(Nc2ccc(C)cc2)CC1,inactive: -2.55%
4,N/C(=N\O)c1c(N)no[n+]1[O-],inactive: 9.13%
5,CC(C)(C)OC(=O)N1CCC(N(C(=O)c2ccccc2)c2ccc(Cl)cc2)CC1,inactive: -8.1%
6,CN(C)C1(CNC(=O)c2cccc(C#N)c2)CCCCC1,inactive: -10.4%
7,c1ccc(CN2CCC(Nc3ccccc3)CC2)cc1,inactive: -5.42%
8,CCCN1CCC(Nc2cc(OC)cc(OC)c2)CC1,inactive: 2.61%
9,Fc1ccccc1NC1CCN(Cc2ccccc2)CC1,inactive: -11.8%
10,COc1cc(OC)cc(C(=O)NCC2(N3CCCCC3)CCCCC2)c1,inactive: -7.44%
11,CN(C)c1ccc(C(=O)NCC2(N3CCCCC3)CCCCC2)cc1,inactive: -6.83%
12,CCN1CCC(Nc2cccc(F)c2)CC1,inactive: -6.49%
13,CC(C)(C)OC(=O)N1CCC(Nc2ccccc2)CC1,inactive: -4.7%
14,O=C(O)C1(Nc2ccccc2)CCN(Cc2ccccc2)CC1,inactive: -3.68%
15,CCCOc1ccc(C(=O)NCC2(N(C)C)CCCCC2)cc1,inactive: -1.78%
16,CCOc1ncccc1C(=O)NCC1(N2CCOCC2)CCCCC1,inactive: -7.11%
17,CN1CCC(Nc2ccc(F)c(Cl)c2)CC1,inactive: -3.13%
18,CN1CCC(Nc2ccc(Cl)cc2)CC1,inactive: -4.27%
19,COc1cccc(C(=O)N(c2cc(C)cc(C)c2)C2CCN(C(=O)OC(C)(C)C)CC2)c1,inactive: -3.86%
20,COc1cc(OC)cc(C(=O)NCC2(N3CCOCC3)CCCCC2)c1,inactive: -1.08%
21,CCC(CO)(C(=O)OC1CN2CCC1CC2)c1ccccc1 (configuration not stated),inactive: 8.57%
22,CSc1ccccc1C(=O)NCC1(N2CCCCC2)CCCCC1,inactive: -6.07%
23,COc1ccc(C(=O)NCC2(N3CCCCC3)CCCCC2)cc1,inactive: 5.43%
24,CC(C)(C)OC(=O)N1CCC(N(C(=O)c2ccccc2)c2ccc(F)cc2)CC1,inactive: 0.215%

row,SMILES,"activity change, negative = inhibition"
1,COc1ccc(C(=O)NCC2(N3CCCCC3)CCCCC2)c(OC)c1OC,inactive: -9.01%
2,O=C(NCC1(N2CCCCC2)CCCCC1)c1ccc(=O)[nH]c1,inactive: 3.33%
3,N#CC1(Nc2ccccc2)CCN(Cc2ccccc2)CC1,inactive: -5.95%
4,O=C(OC1CN2CCC1CC2)C1c2ccccc2Oc2ccccc21 (configuration not stated),inactive: 17.2%
5,CCOC(=O)N1CCC(Nc2ccc(OC)cc2)CC1,inactive: -0.934%
6,Cc1cc(C)cc(N(C(=O)c2ccccc2)C2CCN(C(=O)OC(C)(C)C)CC2)c1,inactive: -1.79%
7,O=C(NCC1(N2CCOCC2)CCCCC1)c1cc2ccccc2o1,inactive: 11.1%
8,O=C(NCC1(N2CCCCC2)CCCCC1)c1ccc(F)cc1,inactive: 1.24%
9,CCOC(=O)N1CCC(Nc2ccc(F)cc2)CC1,inactive: -2.18%
10,COc1ccc(NC2CCN(CCc3ccccc3)CC2)c(OC)c1,inactive: -3.16%
11,CCOC(=O)N1CCC(Nc2cccc(C)c2)CC1,inactive: 0.561%
12,COc1cc(C(=O)NCC2(N(C)C)CCCCC2)ccc1OC(F)F,inactive: 0.79%
13,CCN1CCC(Nc2ccc(Cl)cc2)CC1,inactive: -0.989%
14,N#CC1(Nc2ccccc2)CCN(CCc2ccccc2)CC1,inactive: -14.7%
15,O=C(NCC1(N2CCCCC2)CCCCC1)c1ccc(OC(F)F)cc1,inactive: -0.877%
16,COc1cc(C(=O)NCC2(N3CCCCC3)CCCCC2)ccc1OC(F)F,inactive: 14.3%
17,COc1ccc(NC2CCN(C(=O)OC(C)(C)C)CC2)cc1,inactive: -1.24%
18,O=C(NCC1(N2CCCCC2)CCCCC1)c1cccc(C(F)(F)F)c1,inactive: -4.74%
19,COc1cc(OC)c(C(=O)NCC2(N(C)C)CCCCC2)cc1OC,inactive: -0.509%
20,CC(C)c1ccc(NC2CCN(C(=O)OC(C)(C)C)CC2)cc1,inactive: 0.462%
21,COc1ccc(CN(CCCl)CCCl)cc1Cl,inactive: -14%
22,CN(C)c1cccc(C(=O)NCC2(N3CCCCC3)CCCCC2)c1,inactive: 15%
23,CCCOc1ccc(C(=O)NCC2(N(C)C)CCCCC2)cc1OC,inactive: -6.54%
